Laboratory results: the NIST ThermoML archive (doi:10.1016/j.jct.2018.02.014)
Numbers after ± are expanded uncertainties.

Assay: activity coefficient (dimensionless); of the first substance listed, at infinite dilution; xn = mol fraction of the nth substance listed
Details: 101.33 kPa, Liquid, Chromatography, x1 = 0

activity coefficient (328.15 K): 358 ± 25
activity coefficient (338.15 K): 345 ± 24
activity coefficient (348.15 K): 333 ± 23
activity coefficient (358.15 K): 322 ± 22
activity coefficient (368.15 K): 312 ± 21
SMILES: CCCCOCCCC [dibutyl ether] + CC[N+]1(C)CCOCC1.N#CN=C=[N-]
